This note sets out measurements from patent US12528818B2, “Compositions and methods for inhibition of RAS” (Leidos Biomedical Research, Inc., priority 2021, dated 2026).

Test [1] addresses Avi-KRAS G12C (1-169) GppNHp/RAF1 RBD-3xFLAG (52-151) (Homo sapiens, UniProt P01116, G12C). Kind of test: biochemical. The note with it: Raf1-GppNHp-KRAS G12C disruption, Raf1 RBD-KRAS G12C-GppNHp disruption assay IC50.
Test [2] has as its target GDP-loaded KRAS4b (amino acids 1-169) G12C/C118S protein (Homo sapiens, UniProt P01116, C118S/G12C). Kind of test: Covalent cysteine 12 modification by MALDI-TOF MS, GDP-loaded KRAS G12C. It is filed as biochemical. The note with it: 15 minutes reaction time.
The target of test [3] is GppNHp-loaded KRAS4b (amino acids 1-169) G12C/C118S protein (Homo sapiens, UniProt P01116, C118S/G12C). Kind of test: Covalent cysteine 12 modification by MALDI-TOF MS, GppNHp-loaded KRAS G12C. It is filed as biochemical. The settings on record: 15 minutes reaction time.
The mark [4] stands for this setting: compound 95 or later using 1 μM proteins.
Where [5] appears, read: compounds 94 or before using 5 μM proteins.

`C=CC(=O)N1C[C@@H]2C[C@H]1[C@@H]2N(C)c1nc(OC[C@@]23CCCN2C[C@H](F)C3)nc2c(F)c(-c3ccc(F)c4sc(N)nc34)c(C(F)(F)F)cc12` [Compound 282]: the IC50 in test [1] fell in the range of 5 to 20 µM. Also, the “GDP-KRAS G12C percent of modification” value in test [2] (setting [4]) is “B (50≤percent of modification <70%)”. For the same molecule, the “GppNHp-KRAS G12C percent of modification” value in test [3] (setting [4]) is recorded as “D (percent of modification <10%)”.
With `C=CC(=O)N1CC[C@@H](N(C)c2nc(OC[C@@H]3CC(F)(F)CN3C)nc3c(F)c(-c4ccc(F)c5sc(N)nc45)c(C(F)(F)F)cc23)C1` (atropisomer, axis not shown) [Compound 229], the half-inhibitory concentration (IC50) in test [1] is > 20 µM. Further, in test [2] (setting [4]), the “GDP-KRAS G12C percent of modification” value was “D (percent of modification <10%)”. For the same molecule, in test [3] (setting [4]), the “GppNHp-KRAS G12C percent of modification” value is reported as “D (percent of modification <10%)”.
`C=CC(=O)N1C[C@H](C)N(c2nc(OC[C@]34CCCN3C[C@H](OC)C4)nc3c(F)c(-c4ccc(F)c5sc(N)nc45)c(C(F)(F)F)cc23)C[C@H]1C` [Compound 269]: the IC50 in test [1] is < 0.5 µM. Also, the “GDP-KRAS G12C percent of modification” value in test [2] (setting [4]) is listed as “A (percent of modification ≥70%)”. The “GppNHp-KRAS G12C percent of modification” value in test [3] (setting [4]) is listed as “B (50≤percent of modification <70%)”.
Take `C=CC(=O)N1CC2(C1)CN(c1ncnc3c(F)c(-c4ccc(F)c5sc(N)nc45)c(Cl)cc13)C2` [Compound 28]: the IC50 in test [1] was > 20 µM. Further, the “GDP-KRAS G12C percent of modification” value in test [2] (setting [5]) is given as “A (percent of modification ≥70%)”. For the same molecule, the “GppNHp-KRAS G12C percent of modification” value in test [3] (setting [5]) is listed as “D (percent of modification <10%)”.
The molecule `C=CC(=O)N1CCN(c2nc(OC[C@]34CCCN3C[C@H](F)C4)nc3c(F)c(-c4ccc(F)c5sc(N)nc45)c(C(F)(F)F)cc23)[C@H](C)C1` [Compound 196] gave a 50% inhibitory concentration (IC50) in test [1] of 0.5 to 5 µM. For the same molecule, the “GDP-KRAS G12C percent of modification” value in test [2] (setting [4]) was “A (percent of modification ≥70%)”. In addition, the “GppNHp-KRAS G12C percent of modification” value in test [3] (setting [4]) is listed as “D (percent of modification <10%)”.
For the molecule `C=CC(=O)N1CC(Nc2ncnc3c(F)c(-c4ccc(F)c5sc(N)nc45)cc(OC)c23)C1` [Compound 69, 1-(3-((7-(2-amino-7-fluorobenzo[d]thiazol-4-yl)-8-fluoro-5-methoxyquinazolin-4-yl)amino)azetidin-1-yl)prop-2-en-1-one], the IC50 in test [1] is > 20 µM. The “GDP-KRAS G12C percent of modification” value in test [2] (setting [5]) is on record as “B (50≤percent of modification <70%)”. For the same molecule, the “GppNHp-KRAS G12C percent of modification” value in test [3] (setting [5]) is reported as “D (percent of modification <10%)”.
The matching figures for `N#CN1CC(Nc2nc(OCC34CCCN3CCC4)nc3c(F)c(-c4ccc(F)c5sc(N)nc45)c(Cl)cc23)C1` [Compound 58]: < 0.5 µM, “A (percent of modification ≥70%)” and “A (percent of modification ≥70%)”.
In test [1], `C=CC(=O)N1CCC[C@@H](N(C)c2nc(OC[C@@]34CCCN3C[C@H](F)C4)nc3c(F)c(-c4ccc(F)c5sc(N)nc45)c(C(F)(F)F)cc23)C1` (atropisomer, axis not shown) [Compound 245] yielded a concentration for half-maximal inhibition (IC50) of 0.5 to 5 µM. Besides, the “GDP-KRAS G12C percent of modification” value in test [2] (setting [4]) is “D (percent of modification <10%)”. Moreover, the “GppNHp-KRAS G12C percent of modification” value in test [3] (setting [4]) is listed as “D (percent of modification <10%)”.
Molecule `C=CC(=O)N1CC(Nc2nc(OC[C@@H]3C[C@@H](OC(F)F)CN3C)nc3c(F)c(-c4ccc(F)c5sc(N)nc45)c(Cl)cc23)C1` [Compound 94] returned an IC50 in test [1] of 0.5 to 5 µM. Besides, the “GDP-KRAS G12C percent of modification” value in test [2] (setting [5]) is “B (50≤percent of modification <70%)”. For the same molecule, the “GppNHp-KRAS G12C percent of modification” value in test [3] (setting [5]) is listed as “C (10%≤percent of modification <50%)”.
Turning to `C=CC(=O)N1CCC[C@@H](N(C)c2nc(OC[C@@]34CCCN3C[C@H](F)C4)nc3c(F)c(-c4ccc(F)c5sc(N)nc45)c(C(F)(F)F)cc23)C1` (atropisomer, axis not shown) [Compound 244], in test [1], the 50% inhibitory concentration (IC50) was < 0.5 µM. Also, the “GDP-KRAS G12C percent of modification” value in test [2] (setting [4]) is recorded as “A (percent of modification ≥70%)”. Further, in test [3] (setting [4]), the “GppNHp-KRAS G12C percent of modification” value is “B (50≤percent of modification <70%)”.
The like results for `C=CC(=O)N1CC[C@@H](N(C)c2nc(OC[C@@H]3CC4(CC4)CN3C)nc3c(F)c(-c4ccc(F)c5sc(N)nc45)c(C(F)(F)F)cc23)C1` (atropisomer, axis not shown) [Compound 255] were, in that order, < 0.5 µM, “A (percent of modification ≥70%)” and “A (percent of modification ≥70%)”.
As for `C=CC(=O)N1CC(Nc2nc(OC[C@@H]3CCCN3C)nc3c(F)c(-c4ccc(F)c5sc(N)nc45)c(C(F)(F)F)cc23)C1` [Compound 87], the IC50 in test [1] is < 0.5 µM. Also, the “GDP-KRAS G12C percent of modification” value in test [2] (setting [5]) is reported as “A (percent of modification ≥70%)”. Also, in test [3] (setting [5]), the “GppNHp-KRAS G12C percent of modification” value is listed as “A (percent of modification ≥70%)”.
With `C=CC(=O)N1CC(Nc2nc(OCC3CCN3C)nc3c(F)c(-c4ccc(F)c5sc(N)nc45)c(Cl)cc23)C1` (stereo not drawn) [Compound 83], the IC50 in test [1] was > 20 µM. The “GDP-KRAS G12C percent of modification” value in test [2] (setting [5]) is listed as “B (50≤percent of modification <70%)”. For the same molecule, in test [3] (setting [5]), the “GppNHp-KRAS G12C percent of modification” value was “D (percent of modification <10%)”.
The matching figures for `C=CC(=O)N1CCN(c2nc(OC[C@@H]3CCCN3C)nc3c(F)c(-c4ccc(F)c5sc(N)nc45)c(Cl)cc23)C[C@@H]1C` [Compound 56]: 0.5 to 5 µM, “A (percent of modification ≥70%)” and “C (10%≤percent of modification <50%)”.
`C=CC(=O)N1CC[C@@H](N(CC)c2nc(OC[C@@]34CCCN3C[C@H](F)C4)nc3c(F)c(-c4ccc(F)c5sc(N)nc45)c(C(F)(F)F)cc23)C1` [Compound 257]: the IC50 in test [1] was < 0.5 µM. In addition, in test [2] (setting [4]), the “GDP-KRAS G12C percent of modification” value is given as “A (percent of modification ≥70%)”. Also, the “GppNHp-KRAS G12C percent of modification” value in test [3] (setting [4]) is on record as “A (percent of modification ≥70%)”.
For `C=CC(=O)N1CC(Nc2nc(OC[C@@H]3CCCN3C)nc3c(F)c(-c4ccc(F)c5nc(N)sc45)c(Cl)cc23)C1` [Compound 90], the half-inhibitory concentration (IC50) in test [1] was > 20 µM. Also, the “GDP-KRAS G12C percent of modification” value in test [2] (setting [5]) is on record as “A (percent of modification ≥70%)”. Also, in test [3] (setting [5]), the “GppNHp-KRAS G12C percent of modification” value is on record as “D (percent of modification <10%)”.
The matching figures for `C=CC(=O)N1CCN(c2nc(OC[C@@H]3C[C@@H](F)CN3C)nc3c(F)c(-c4ccc(F)c5sc(N)nc45)c(Cl)cc23)CC1` [Compound 85]: 0.5 to 5 µM, “A (percent of modification ≥70%)” and “C (10%≤percent of modification <50%)”.
For the molecule `C=CC(=O)N1C[C@H](C)N(c2nc(OCC3(CN4CC[C@@H](F)C4)CC3)nc3c(F)c(-c4ccc(F)c5sc(N)nc45)c(C(F)(F)F)cc23)C[C@H]1C` [Compound 286], the half-maximal inhibitory concentration (IC50) in test [1] is < 0.5 µM. In addition, in test [2] (setting [4]), the “GDP-KRAS G12C percent of modification” value was “B (50≤percent of modification <70%)”. Besides, the “GppNHp-KRAS G12C percent of modification” value in test [3] (setting [4]) was “D (percent of modification <10%)”.
The like results for `C=CC(=O)N1CC(N(CC)c2nc(OC[C@]34CCCN3C[C@H](F)C4)nc3c(F)c(-c4ccc(F)c5sc(N)nc45)c(C(F)(F)F)cc23)C1` [Compound 206] were, in that order, < 0.5 µM, “C (10%≤percent of modification <50%)” and “C (10%≤percent of modification <50%)”.
Regarding `C=CC(=O)N1CC[C@@H](N(C)c2nc(OC[C@@H]3CCCN3C)nc3c(F)c(-c4ccc(F)c5sc(N)nc45)c(C(F)(F)F)cc23)C1` [Compound 230], in test [1], the concentration for half-maximal inhibition (IC50) is < 0.5 µM. In addition, in test [2] (setting [4]), the “GDP-KRAS G12C percent of modification” value was “C (10%≤percent of modification <50%)”. The “GppNHp-KRAS G12C percent of modification” value in test [3] (setting [4]) was “C (10%≤percent of modification <50%)”.
Consider `C=CC(=O)N1CC(Nc2nc(OC[C@@H]3CCCN3C)nc3c(F)c(-c4ccc(F)c5sc(N)nc45)c(Cl)cc23)C1` [Compound 23, 1-(3-((7-(2-amino-7-fluorobenzo[d]thiazol-4-yl)-6-chloro-8-fluoro-2-(((S)-1-methylpyrrolidin-2-yl)methoxy)quinazolin-4-yl)amino)azetidin-1-yl)prop-2-en-1-one], for which, in test [1], the IC50 was < 0.5 µM. Besides, in test [2] (setting [5]), the “GDP-KRAS G12C percent of modification” value is given as “A (percent of modification ≥70%)”. The “GppNHp-KRAS G12C percent of modification” value in test [3] (setting [5]) is on record as “A (percent of modification ≥70%)”.
Consider `NC(=O)/C=C/C(=O)N1CC(Nc2ncnc3c(F)c(-c4ccc(F)c5sc(N)nc45)c(Cl)cc23)C1` [Compound 61], for which, in test [1], the IC50 was > 20 µM. In addition, in test [2] (setting [5]), the “GDP-KRAS G12C percent of modification” value is “B (50≤percent of modification <70%)”. In test [3] (setting [5]), the “GppNHp-KRAS G12C percent of modification” value is “D (percent of modification <10%)”.
For the molecule `C=CC(=O)N1CCN(c2nc(OC[C@]34CCCN3C[C@H](F)C4)nc3c(F)c(-c4ccc(F)c5sc(N)nc45)c(C(F)(F)F)cc23)[C@@H](C)C1` [Compound 177], in test [1], the concentration for half-maximal inhibition (IC50) is < 0.5 µM. Besides, the “GDP-KRAS G12C percent of modification” value in test [2] (setting [4]) is listed as “A (percent of modification ≥70%)”. The “GppNHp-KRAS G12C percent of modification” value in test [3] (setting [4]) is reported as “C (10%≤percent of modification <50%)”.
The like results for `C=CC(=O)N1CCCN(c2ncnc3c(F)c(-c4ccc(F)c5sc(N)nc45)c(Cl)cc23)CC1` [Compound 260] were, in that order, > 20 µM, “A (percent of modification ≥70%)” and “D (percent of modification <10%)”.
The like results for `C=CC(=O)N1CC[C@@H](N(CC)c2ncnc3c(F)c(-c4ccc(F)c5sc(N)nc45)c(C(F)(F)F)cc23)C1` [Compound 248] were, in that order, 0.5 to 5 µM, “A (percent of modification ≥70%)” and “D (percent of modification <10%)”.
For `C#CC(=O)N1CC(Nc2nc(OC[C@@H]3CCCN3C)nc3c(F)c(-c4ccc(F)c5sc(N)nc45)c(Cl)cc23)C1` [Compound 81], in test [1], the IC50 was < 0.5 µM. Also, the “GDP-KRAS G12C percent of modification” value in test [2] (setting [5]) is recorded as “A (percent of modification ≥70%)”. Moreover, the “GppNHp-KRAS G12C percent of modification” value in test [3] (setting [5]) was “A (percent of modification ≥70%)”.
